Data reported in ChEMBL document CHEMBL1641500, “Carbonic anhydrase inhibitors. Inhibition studies with anions and sulfonamides of a new cytosolic enzyme from the scleractinian coral Stylophora pistillata” (Bioorg Med Chem Lett, 2011).

Biological target: Carbonic anhydrase 6 (Homo sapiens, UniProt P23280)

[N-]=[N+]=N
Ki: 70 µM
